# Earlier results in US20250341526A1, “NOVEL DYES” (Quantum-Si Incorporated, priority 2024, published 2025).
# Entries after “also recorded” stand apart in the source; their conditions may differ.
# System: amino acid at a terminal position of a polypeptide
# Settings: Table 2; amino acid at terminal position (phosphotyrosine also internal); inferred from literature and/or demonstrated by the inventors; cited from earlier work
substance,measurement,value
"H. sapiens p62 protein: amino acid recognition protein, SEQ ID NO: 123",Binding Pref.,"K, R, H,; also recorded: W, F, Y"
